# Earlier results as cited in paper PMC12901815 (Environmental Analysis, Health and Toxicology, 2025).
# Legend:
# [1] = male Alderley Park rats, single oral 20 mg/kg, over 240 hours; cited from earlier work
# [2] = rats with cannulated bile ducts, single oral 20 mg/kg, cited from earlier work
# [3] = rats, via drinking water or in the diet; cited from earlier work
substance,measurement,setting,value
polyaminopropylbiguanide [PHMB],radioactivity excreted in feces,[1],93.1 ± 1.58%
same,radioactivity excreted in urine,[1],5.6 ± 0.35%
same,radioactivity excreted via exhalation,[1],0.2%
same,radioactivity excreted in feces,[2]; females,98.9%
same,radioactivity excreted in feces,[2]; males,96.8%
same,biliary excretion of administered radioactivity,[2],less than 0.2%
same,urinary excretion of administered radioactivity,[2],less than 3%
same,absorption and route of excretion,[3],"absorbed; most of it was excreted in urine, with smaller amounts excreted in feces"

# Like-named read-outs stand apart in the source and are kept apart here.
